# Key:
# Chains of the proteins cited; added tags and fusions are not shown.
# UniProt Q01827, whole entry: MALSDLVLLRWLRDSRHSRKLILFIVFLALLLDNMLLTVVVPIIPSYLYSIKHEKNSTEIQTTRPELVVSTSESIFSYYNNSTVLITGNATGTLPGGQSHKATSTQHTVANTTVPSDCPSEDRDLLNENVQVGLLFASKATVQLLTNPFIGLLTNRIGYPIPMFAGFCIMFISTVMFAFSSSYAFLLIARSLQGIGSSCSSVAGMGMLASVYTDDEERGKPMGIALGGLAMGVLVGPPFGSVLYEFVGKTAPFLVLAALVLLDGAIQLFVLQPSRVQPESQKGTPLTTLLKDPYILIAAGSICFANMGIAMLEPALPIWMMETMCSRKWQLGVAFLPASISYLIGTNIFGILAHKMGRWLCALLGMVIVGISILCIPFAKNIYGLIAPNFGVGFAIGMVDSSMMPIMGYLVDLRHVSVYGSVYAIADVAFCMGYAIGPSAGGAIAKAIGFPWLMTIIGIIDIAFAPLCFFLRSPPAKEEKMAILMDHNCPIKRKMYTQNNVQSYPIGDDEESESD
# VMAT2 [1] = biological target: T1, VMAT2 (Rattus norvegicus, UniProt Q01827); format: biochemical; settings: rat striatal vesicles, mean±SEM
# VMAT2 [2] = biological target: T1, VMAT2; format: binding; settings: whole rat brain vesicles, mean±SEM
compound,measurement,setting,value
"COc1cc2c(cc1OC)C1CC(=O)C(CC(C)C)CN1CC2 (centres unmarked) [TBZ, Tetrabenazine, reference compound]",VMAT2 [3H]DA uptake Imax,VMAT2 [1],92±3%
same,[3H]DTBZ binding Imax,VMAT2 [2],100%

# Reference: article PMC4084610 (Advances in pharmacology (San Diego, Calif.), 2014)
